The target of the test is Toc75 POTRA-His (protein fragment encompassing all three Toc75 POTRA domains and a C-terminal hexahistidine tag) (Arabidopsis thaliana) (UniProt Q9STE8). The experiment in a line: pull-down; solid phase binding: increasing amounts of POTRA-His immobilised on Ni-NTA resin, incubated with in vitro translated 35S-labelled proteins in HMK buffer (50 mM Hepes-KOH pH 7.5, 2 mM MgCl2, 40 mM KOAc) with 10 mM imidazole and 0.1% Triton X-100, 30 min, 23°C; phosphorimaging.

“[35S]SSU (from UniProt P10795 55-180) (natural protein)” had a percent of added radiolabeled protein associated with the resin of less than 10%.
